“And” between values parts separate entries of the source, which are not always exact repeats. Identical values can stand only once.
Tested on: mice
Assay: Minimal neurotoxicity, Rotarod test in mice (ASP, NINDS)
Assay type: in vivo

For “(1S,2E,4S,6R,7E,11E)-cembra-2,7,11-triene-4,6-diol”, the “Toxicity in mice compared with 4R cembranoid” value (i.p.) was “somewhat more toxic than 4R cembranoid”, the “Rotarod toxicity, number of animals failing the test over the number tested” value (shortened to “Rotarod toxicity … over the number tested”) (i.p. 30 mg/kg, 0.5 h after injection) was 0/4 and the “Rotarod toxicity … over the number tested” value (i.p. 30 mg/kg, 4.0 h after injection) was 0/2. For the same substance, the “Rotarod toxicity … over the number tested” value (i.p. 100 mg/kg, 0.5 h after injection, listed as 4S, 100 mg/kg) was 1/8, the “Rotarod toxicity … over the number tested” value (i.p. 100 mg/kg, 4.0 h after injection) was 0/4 and the “Rotarod toxicity … over the number tested” value (i.p. 300 mg/kg, 0.5 h after injection, listed as 4S, 300 mg/kg) was 3 of 4 and 3/4. The “Rotarod toxicity … over the number tested” value (i.p. 300 mg/kg, 4.0 h after injection) was 1/2.

From patent US8530525B2 (priority 2009, dated 2013)
